Results on three substances are retold here after patent publication US20100233079A1 (AbbVie / Abbott, published 2010).

Chains of the proteins cited; added tags and fusions are not shown. Residues count along the entry.
UniProt P01375, 77-233 limits assumed: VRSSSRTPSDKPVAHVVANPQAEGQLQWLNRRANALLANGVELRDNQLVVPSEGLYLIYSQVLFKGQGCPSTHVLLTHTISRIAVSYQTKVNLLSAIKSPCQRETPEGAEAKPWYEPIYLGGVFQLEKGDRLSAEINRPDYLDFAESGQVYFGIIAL

By Kd is commonly meant the concentration at which binding is half-saturated. What is called koff is the rate constant with which the complex falls apart. The kon is the rate constant with which the complex forms. Low values mean slower complex formation, high ones faster complex formation.

This assay addresses TNFα (TNFα/TNFSF1A) (UniProt P01375). Briefly: SPR (Biacore), DVD-Ig captured, antigen in solution. In general terms: SPR reads the build-up and loss of mass on a sensor chip optically.
“DVD699-C (bispecific antibody; other documents disagree on this pair)” gave a Kd of 0.526 nM, a koff of 0.000195 s⁻¹ and a kon of 371000 M⁻¹ s⁻¹.

Consider “DVD700-C (bispecific antibody; other documents disagree on this pair)”, for which the Kd was determined as 0.522 nM, the koff amounted to 0.00019 s⁻¹ and the kon is 364000 M⁻¹ s⁻¹.

In turn, “DVD701-C (bispecific antibody; other documents disagree on this pair)” registered a Kd of 0.402 nM, a koff of 0.000179 s⁻¹ and a kon of 445000 M⁻¹ s⁻¹.
